Experimental data taken from US9944583B2, “Methods for ameliorating and preventing central nervous system inflammation” (THE REGENTS OF THE UNIVERSITY OF CALIFORNIA, priority 2007, dated 2018).

Assays:
IL-6 mRNA [1] = assay: cytokine mRNA in forebrain after in vivo ketamine; details: ketamine 30 mg/kg on two consecutive days
NADPH oxidase (Nox) = assay: Nox activity in synaptosomes by NADPH-dependent oxygen consumption (oximetry); assay type: biochemical, mouse; details: synaptosomes from mice given ketamine 30 mg/kg on two consecutive days; control 4.67±0.98
Description: Synaptosomal preparations. […] Mice were euthanized by exposure to a lethal dose of inhaled halothane, followed by cervical dislocation. Brains were rapidly removed, cortices dissected and homogenized in 10 volumes of ice-cold isolation buffer (0.32M sucrose, 1 mM EDTA, 10 mM Tris-HCl buffer, pH 7.4, 10 mM glucose). The homogenate was centrifuged at 3100 rpm for 3 min at 4° C., and the supernatant collected, and the pellet was re-homogenized in half the volume of isolation buffer and centrifuged again. Synaptosomal were then isolated as described (see reference 30, below) modified as follows, the pooled supernatants were mixed with PERCOLL™ (Sigma, St. Louis, Mo.) to a final concentration of 15%, and then layered onto a step gradient of 23% and 40% PERCOLL™, and centrifuged at 16,000 rpm for 5 minutes at 4° C. The uppermost band was extracted, rinsed in isolation buffer, centrifuged and resuspended in synaptosomal buffer (120 mM NaCl, 4.7 mM KCl, 2.2 mM CaCl2, 1.2 mM MgCl2, 25 mM HEPES, 1.2 mM MgSO4, 1.2 mM KH2PO4, 10 mM glucose).
Oxygen consumption studies (oximetry). O2 consumption studies on synaptosomes are carried out. […] Studies were carried out to optimize the concentration of synaptosomal protein required, and to confirm stability and viability of synaptosomes and their mitochondria for up to 6 h.

Nox2 [2] = assay: Nox expression in primary neuronal cultures (immunocytochemistry, Western blot); details: ketamine 0.5 μM or IL-6 10 ng/ml, 24 h
IL-6 mRNA [3] = assay: cytokine mRNA by RT-PCR in ketamine-treated primary neuronal cultures; details: 24 hours after ketamine 0.5 μM
Nox2 [4] = assay: IL-6 i.p. on two consecutive days in mice: brain and synaptosomal Nox; details: IL-6 5 μg/kg on two consecutive days

Compound | levels of IL-6 mRNA in brain (IL-6 mRNA [1]) | NADPH-induced oxygen consumption (NADPH oxidase (Nox)) | expression of Nox2 (Nox2 [2]) | IL-6 mRNA level with respect to control (IL-6 mRNA [3]) | Nox2 mRNA in brain, Nox protein and activity in synaptosomes (Nox2 [4])
CNC1(c2ccccc2Cl)CCCCC1=O (stereo not drawn) [ketamine] | increased | 7.9±1.8 nmol O2/mg protein/min | induced | 180±18.1% | –
IL-6: pro-inflammatory cytokine interleukin-6 | – | – | induced | – | increases
